The chains behind the UniProt entries cited, without tags or fusion partners. A line that says so, or that is headed by a name, gives the form on record, which may keep a tag or linker.
UniProt Q9H2S1, with tags, fused parts or gaps DUP58-58: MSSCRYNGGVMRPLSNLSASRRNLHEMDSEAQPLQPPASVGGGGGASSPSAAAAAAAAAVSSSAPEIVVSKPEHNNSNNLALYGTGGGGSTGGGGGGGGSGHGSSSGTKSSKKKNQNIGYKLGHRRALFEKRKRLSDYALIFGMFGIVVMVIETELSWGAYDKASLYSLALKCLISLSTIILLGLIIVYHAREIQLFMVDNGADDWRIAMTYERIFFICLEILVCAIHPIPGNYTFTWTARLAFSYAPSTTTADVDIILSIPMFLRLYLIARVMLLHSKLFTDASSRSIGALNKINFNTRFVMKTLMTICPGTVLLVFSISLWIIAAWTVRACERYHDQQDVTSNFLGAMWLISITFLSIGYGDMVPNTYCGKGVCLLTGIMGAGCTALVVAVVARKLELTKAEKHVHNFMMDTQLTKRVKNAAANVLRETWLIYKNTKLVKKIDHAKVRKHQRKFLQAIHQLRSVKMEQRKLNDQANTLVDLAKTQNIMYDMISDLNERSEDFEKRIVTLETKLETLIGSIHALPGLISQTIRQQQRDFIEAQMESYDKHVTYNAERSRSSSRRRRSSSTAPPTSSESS

According to patent publication US20080268439A1, “ASSAY SYSTEMS AND METHODS FOR DETECTING MOLECULES THAT INTERACT WITH SK2 CHANNELS” (priority 2007, published 2008):

Molecular target: hSK2A^+ expressed in mammalian tsA201 cells (Homo sapiens, UniProt Q9H2S1, DUP58-58)
Assay: Membrane potential sensitive dye fluorescence (FLIPR) assay in tsA201 cells stably expressing SK2
Conditions: riluzole-induced hyperpolarization, FIG. 10

Nc1nc2ccc(OC(F)(F)F)cc2s1 [Riluzole]
nH: 1.4
